# Patent US20090253669A1, “Substituted Sulfonamide Compounds” (GRUENENTHAL GmbH, priority 2008, published 2009)
# Chains of the proteins cited; added tags and fusions are not shown.
# UniProt P35372, whole entry, looked up: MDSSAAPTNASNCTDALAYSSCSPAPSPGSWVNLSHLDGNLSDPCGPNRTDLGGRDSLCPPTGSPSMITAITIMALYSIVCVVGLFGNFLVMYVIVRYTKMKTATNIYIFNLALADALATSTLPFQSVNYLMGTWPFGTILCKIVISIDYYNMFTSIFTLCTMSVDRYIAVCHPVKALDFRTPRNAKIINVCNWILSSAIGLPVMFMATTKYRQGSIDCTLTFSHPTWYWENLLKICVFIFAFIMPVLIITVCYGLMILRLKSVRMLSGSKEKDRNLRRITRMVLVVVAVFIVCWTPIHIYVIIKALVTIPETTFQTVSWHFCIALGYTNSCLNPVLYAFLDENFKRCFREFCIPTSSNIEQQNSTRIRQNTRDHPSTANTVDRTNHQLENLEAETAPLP
# Biological target: human μ opiate receptor (Homo sapiens, UniProt P35372)
# Test: [3H]-naloxone displacement, SPA, membranes of CHO-K1 cells
# Settings: 1 μM test substance; inhibition of specific binding of 1 nmol/l [3H]-naloxone
row,Structure (SMILES),μ opioid receptor [1 μM] % inhibition
1,"COc1cc(C)c(S(=O)(=O)N2CCCCC2COCC(=O)N(C)CCC2CCC(c3ccccc3)(N3CCCC3)CC2)c(C)c1 (stereo not drawn) [Compound 60, 2-((1-(4-methoxy-2,6-dimethylphenylsulfonyl)piperidin-2-yl)methoxy)-N-methyl-N-(2-(4-phenyl-4-(pyrrolidin-1-yl)cyclohexyl)ethyl)acetamide]",79%
2,"COc1cc(C)c(S(=O)(=O)N2CCCC2COCC(=O)NC2CCC(Cc3ccccc3)(N3CCCC3)CC2)c(C)c1 (stereo not drawn) [Compound 151, N-(4-benzyl-4-(pyrrolidin-1-yl)cyclohexyl)-2-((1-(4-methoxy-2,6-dimethylphenylsulfonyl)pyrrolidin-2-yl)methoxy)acetamide]",66%
3,"COc1cc(C)c(S(=O)(=O)N(C)CCOCC(=O)NC2CCC(c3ccccc3)(N3CCCC3)CC2)c(C)c1 (stereo not drawn) [Compound 150, 2-(2-(4-methoxy-N,2,6-trimethylphenylsulfonamido)ethoxy)-N-(4-phenyl-4-(pyrrolidin-1-yl)cyclohexyl)acetamide]",85%
4,"CN(CCC1CCC(c2ccccc2)(N(C)C)CC1)C(=O)CC1CCCCN1S(=O)(=O)c1cccc(C(F)(F)F)c1 (stereo not drawn) [Compound 125, N-(2-(4-(dimethylamino)-4-phenylcyclohexyl)ethyl)-N-methyl-2-(1-(3-(trifluoromethyl)phenylsulfonyl)piperidin-2-yl)acetamide]",99%
5,"COc1cc(C)c(S(=O)(=O)N2CCCCC2COCC(=O)N(C)CCCC2CCC(c3cccc(F)c3)(N3CCCC3)CC2)c(C)c1 (stereo not drawn) [Compound 204, N-(3-(4-(3-fluorophenyl)-4-(pyrrolidin-1-yl)cyclohexyl)propyl)-2-((1-(4-methoxy-2,6-dimethylphenylsulfonyl)piperidin-2-yl)methoxy)-N-methylacetamide]",59%
6,"Cc1cc(S(=O)(=O)N2CCCCC2CCC(=O)N2CCC(c3ccccc3)(N3CCN(C)CC3)CC2)c(C)cc1Cl (stereo not drawn) [Compound 110, 3-(1-(4-chloro-2,5-dimethylphenylsulfonyl)piperidin-2-yl)-1-(4-(4-methylpiperazin-1-yl)-4-phenylpiperidin-1-yl)propan-1-one]",54%
7,"CN(CCC1CCC(c2ccccc2)(N2CCCC2)CC1)C(=O)CC(NS(=O)(=O)c1ccc2ccccc2c1)c1ccccc1 (stereo not drawn) [Compound 40, N-methyl-3-(naphthalene-2-sulfonamido)-3-phenyl-N-(2-(4-phenyl-4-(pyrrolidin-1-yl)cyclohexyl)ethyl)propanamide]",88%
8,"COc1cc(C)c(S(=O)(=O)N(C)CCOCC(=O)NC2CCC(c3cccc(F)c3)(N(C)C)CC2)c(C)c1 (stereo not drawn) [Compound 6, N-(4-(dimethylamino)-4-(3-fluorophenyl)cyclohexyl)-2-(2-(4-methoxy-N,2,6-trimethylphenylsulfonamido)ethoxy)acetamide]",98%
9,"COc1cc(C)c(S(=O)(=O)N2CCC(OCC(=O)NC3CCC(Cc4ccccc4C)(N(C)C)CC3)C2)c(C)c1 (stereo not drawn) [Compound 14, N-(4-(dimethylamino)-4-(2-methylbenzyl)cyclohexyl)-2-(1-(4-methoxy-2,6-dimethylphenylsulfonyl)pyrrolidin-3-yloxy)acetamide]",40%
10,"COc1cc(C)c(S(=O)(=O)N(C)CCOCC(=O)N(C)CCC2CCC(CCc3ccccc3)(N3CCCC3)CC2)c(C)c1 (stereo not drawn) [Compound 58, 2-(2-(4-methoxy-N,2,6-trimethylphenylsulfonamido)ethoxy)-N-methyl-N-(2-(4-phenethyl-4-(pyrrolidin-1-yl)cyclohexyl)ethyl)acetamide]",11%
11,"O=C(CC1c2ccccc2CCN1S(=O)(=O)c1ccc(Cl)c(Cl)c1)NC1CCC(Cc2ccccc2)(N2CCCCCC2)CC1 (stereo not drawn) [Compound 16, N-(4-(azepan-1-yl)-4-benzylcyclohexyl)-2-(2-(3,4-dichlorophenylsulfonyl)-1,2,3,4-tetrahydroisoquinolin-1-yl)acetamide]",30%
12,"CNC1(c2ccncc2)CCN(C(=O)COCCN(C)S(=O)(=O)c2c(C)cc(OC)cc2C)CC1 [Compound 209, 4-Methoxy-N,2,6-trimethyl-N-(2-(2-(4-(methylamino)-4-(pyridin-4-yl)piperidin-1-yl)-2-oxoethoxy)ethyl)benzenesulfonamide]",17%
13,"CN(CCC1CCC(Cc2ccccc2)(N(C)C)CC1)C(=O)CC(NS(=O)(=O)c1ccc2ccccc2c1)c1ccccc1 (stereo not drawn) [Compound 86, N-(2-(4-benzyl-4-(dimethylamino)cyclohexyl)ethyl)-N-methyl-3-(naphthalene-2-sulfonamido)-3-phenylpropanamide]",76%
14,"COc1cc(C)c(S(=O)(=O)N2CCC(OCC(=O)N(C)CC3CCC(CCc4ccccc4)(N4CCN(C)CC4)CC3)C2)c(C)c1 (stereo not drawn) [Compound 177, 2-(1-(4-methoxy-2,6-dimethylphenylsulfonyl)pyrrolidin-3-yloxy)-N-methyl-N-((4-(4-methylpiperazin-1-yl)-4-phenethylcyclohexyl)methyl)acetamide]",29%
15,"CN1CCN(C2(Cc3ccccc3)CCN(C(=O)COCC3CCc4ccccc4N3S(=O)(=O)c3ccc(Cl)c(Cl)c3)CC2)CC1 (stereo not drawn) [Compound 108, 1-(4-benzyl-4-(4-methylpiperazin-1-yl)piperidin-1-yl)-2-((1-(3,4-dichlorophenylsulfonyl)-1,2,3,4-tetrahydroquinolin-2-yl)methoxy)ethanone]",8%
16,"CN1CCN(C2(Cc3ccccc3)CCC(CN(C)C(=O)COCCN(C)S(=O)(=O)c3c(Cl)cc(Cl)cc3Cl)CC2)CC1 (stereo not drawn) [Compound 186, N-((4-benzyl-4-(4-methylpiperazin-1-yl)cyclohexyl)methyl)-N-methyl-2-(2-(2,4,6-trichloro-N-methylphenylsulfonamido)ethoxy)acetamide]",9%
17,"CN(C)C1(c2ccccc2)CCC(NC(=O)COCCN(C)S(=O)(=O)c2c(Cl)cc(Cl)cc2Cl)CC1 (stereo not drawn) [Compound 199, N-(4-(dimethylamino)-4-phenylcyclohexyl)-2-(2-(2,4,6-trichloro-N-methylphenylsulfonamido)ethoxy)acetamide]",100%
18,"COc1cc(C)c(S(=O)(=O)N2CCCCC2COCC(=O)N2CCC(c3ccccc3)(N3CCN(c4ccncc4)CC3)CC2)c(C)c1 (stereo not drawn) [Compound 62, 2-((1-(4-methoxy-2,6-dimethylphenylsulfonyl)piperidin-2-yl)methoxy)-1-(4-phenyl-4-(4-(pyridin-4-yl)piperazin-1-yl)piperidin-1-yl)ethanone]",61%
19,"CN1CCN(C2(Cc3ccccc3)CCC(CN(C)C(=O)COCC3CCCCN3S(=O)(=O)c3c(Cl)cc(Cl)cc3Cl)CC2)CC1 (stereo not drawn) [Compound 162, N-((4-benzyl-4-(4-methylpiperazin-1-yl)cyclohexyl)methyl)-N-methyl-2-((1-(2,4,6-trichlorophenylsulfonyl)piperidin-2-yl)methoxy)acetamide]",42%
20,"COc1cc(C)c(S(=O)(=O)N(C)CCOCC(=O)NC2CCC(Cc3ccccc3)(N3CCCCC3)CC2)c(C)c1 (stereo not drawn) [Compound 17, N-(4-benzyl-4-(piperidin-1-yl)cyclohexyl)-2-(2-(4-methoxy-N,2,6-trimethylphenylsulfonamido)ethoxy)acetamide]",18%
21,"CN(CCC1CCC(Cc2ccccc2)(N2CCCC2)CC1)C(=O)CC1CCCCN1S(=O)(=O)c1cccc(C(F)(F)F)c1 (stereo not drawn) [Compound 121, N-(2-(4-benzyl-4-(pyrrolidin-1-yl)cyclohexyl)ethyl)-N-methyl-2-(1-(3-(trifluoromethyl)phenylsulfonyl)piperidin-2-yl)acetamide]",24%
22,"COc1cc(C)c(S(=O)(=O)N(C)CCOCC(=O)N2CCC(CCc3ccccc3)(N(C)C)CC2)c(C)c1 [Compound 48, N-(2-(2-(4-(dimethylamino)-4-phenethylpiperidin-1-yl)-2-oxoethoxy)ethyl)-4-methoxy-N,2,6-trimethylbenzenesulfonamide]",8%
23,"O=C(COCC1CCCN1S(=O)(=O)c1c(Cl)cc(Cl)cc1Cl)NC1CCC(c2ccccc2)(N2CCOCC2)CC1 (stereo not drawn) [Compound 164, N-(4-morpholino-4-phenylcyclohexyl)-2-((1-(2,4,6-trichlorophenylsulfonyl)pyrrolidin-2-yl)methoxy)acetamide]",85%
24,"CN1CCN(C2(Cc3ccccc3)CCC(CN(C)C(=O)COCC3CCCN3S(=O)(=O)c3c(Cl)cc(Cl)cc3Cl)CC2)CC1 (stereo not drawn) [Compound 168, N-((4-benzyl-4-(4-methylpiperazin-1-yl)cyclohexyl)methyl)-N-methyl-2-((1-(2,4,6-trichlorophenylsulfonyl)pyrrolidin-2-yl)methoxy)acetamide]",71%
25,"COc1cc(C)c(S(=O)(=O)N2CCCC(COCC(=O)NC3CCC(c4ccccc4)(N4CCCC4)CC3)C2)c(C)c1 (stereo not drawn) [Compound 187, 2-((1-(4-methoxy-2,6-dimethylphenylsulfonyl)piperidin-3-yl)methoxy)-N-(4-phenyl-4-(pyrrolidin-1-yl)cyclohexyl)acetamide]",84%
26,"COc1cc(C)c(S(=O)(=O)N(C)CCOCC(=O)NC2CCC(c3ccccc3)(N3CCCCC3)CC2)c(C)c1C (stereo not drawn) [Compound 28, 2-(2-(4-methoxy-N,2,3,6-tetramethylphenylsulfonamido)ethoxy)-N-(4-phenyl-4-(piperidin-1-yl)cyclohexyl)acetamide]",39%
27,"CN(C)C1(c2ccccc2)CCN(C(=O)COCC2CCc3ccccc3N2S(=O)(=O)c2ccc(Cl)c(Cl)c2)CC1 (stereo not drawn) [Compound 109, 2-((1-(3,4-dichlorophenylsulfonyl)-1,2,3,4-tetrahydroquinolin-2-yl)methoxy)-1-(4-(dimethylamino)-4-phenylpiperidin-1-yl)ethanone]",94%
